Target: hERG channel (Homo sapiens, UniProt Q12809)
Assay: PatchXpress hERG channel assay in CHO-hERG cells
Format: cell-based
Conditions: read-out: IC50 of hERG inhibition

Sequences of proteins named here, by UniProt entry; tags and fusion partners are left off. A change or cut given only in a name is not applied to a line headed by its entry.
UniProt Q12809: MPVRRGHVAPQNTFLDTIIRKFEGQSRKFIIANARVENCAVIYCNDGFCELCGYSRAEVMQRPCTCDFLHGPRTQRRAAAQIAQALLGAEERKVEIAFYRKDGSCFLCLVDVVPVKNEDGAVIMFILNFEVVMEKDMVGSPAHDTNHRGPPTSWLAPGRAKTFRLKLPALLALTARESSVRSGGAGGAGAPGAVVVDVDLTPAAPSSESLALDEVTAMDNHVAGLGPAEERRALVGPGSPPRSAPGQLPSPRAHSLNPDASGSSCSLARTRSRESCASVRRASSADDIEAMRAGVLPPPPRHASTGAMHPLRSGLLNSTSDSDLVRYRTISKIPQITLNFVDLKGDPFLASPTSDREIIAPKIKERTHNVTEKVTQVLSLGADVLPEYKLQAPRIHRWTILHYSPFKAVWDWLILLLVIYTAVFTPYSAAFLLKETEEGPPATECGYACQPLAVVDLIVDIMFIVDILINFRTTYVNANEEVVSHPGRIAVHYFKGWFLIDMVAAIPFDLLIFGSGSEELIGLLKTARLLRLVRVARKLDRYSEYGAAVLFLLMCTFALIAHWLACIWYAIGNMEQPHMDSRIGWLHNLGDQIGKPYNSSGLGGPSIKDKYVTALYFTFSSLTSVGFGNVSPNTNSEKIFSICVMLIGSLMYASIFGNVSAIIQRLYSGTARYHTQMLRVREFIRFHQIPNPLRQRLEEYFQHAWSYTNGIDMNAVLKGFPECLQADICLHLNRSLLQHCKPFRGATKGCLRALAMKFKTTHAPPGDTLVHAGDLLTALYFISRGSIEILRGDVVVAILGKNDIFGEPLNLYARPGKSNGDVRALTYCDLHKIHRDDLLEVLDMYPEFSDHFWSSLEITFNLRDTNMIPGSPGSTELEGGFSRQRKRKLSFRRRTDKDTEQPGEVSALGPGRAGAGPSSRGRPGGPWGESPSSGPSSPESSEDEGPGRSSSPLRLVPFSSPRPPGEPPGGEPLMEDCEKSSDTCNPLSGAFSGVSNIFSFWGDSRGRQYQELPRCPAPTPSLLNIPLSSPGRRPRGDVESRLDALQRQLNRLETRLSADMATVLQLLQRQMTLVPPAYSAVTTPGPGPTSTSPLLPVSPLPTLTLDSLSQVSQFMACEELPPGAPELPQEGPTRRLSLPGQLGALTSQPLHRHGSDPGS

COCCNCCCn1c(C(=O)CF)c(-c2ccc(C)cc2)c2c(N)ncnc21 [RSK FMK-MEA, fluoromethylketone methoxyethylamine]
IC50: 2200 nM

From article PMC5858560 (2011)
